From patent US7582618B2 (priority 2002, dated 2009)

Key:
[1] = test system: intracellular phosphorylation of mCyd to mCyd-TP; assay: Substrate competition for mCyd phosphorylation
[2] = test system: genotype 1 HCV (serum HCV RNA); conditions: seven days
HCV = assay: Clinical antiviral activity, serum HCV RNA (Amplicor HCV Monitor assay v2.0)
CVB-2 = assay: Antiviral test (Tables 8b, 8c); format: cell-based, Coxsackievirus B-2; conditions: Coxsackievirus
BVDV [3] = assay: Antiviral test (Table 8b); format: cell-based; conditions: Bovine viral diarrhea virus isolates and strains; table note: BHK for Bovine Viral Diarrhea Virus
DENV 2 = assay: Antiviral test (Table 8b); format: cell-based; conditions: Dengue virus
REO-1 = assay: Antiviral test (Tables 8b, 8c); format: cell-based, double-stranded RNA viruses
[4] = test system: wide spectrum of other viruses; assay: Exploratory cell culture antiviral studies of mUrd; format: cell-based
BVDV [5] = assay: Exploratory cell culture antiviral studies of mUrd; format: cell-based, bovine viral diarrhea virus

## Nc1ccn([C@H]2C[C@H](O)[C@@H](CO)O2)c(=O)n1 [deoxycytidine]
[1]; read-out: EC50 for reduction of formation of mCyd-TP
  EC50: > 100 µM

## CC(C)C(N)C(=O)OC1[C@@H](CO)O[C@@H](n2ccc(N)nc2=O)C1(C)O (stereo in doubt) [val-mCyd, 2-Amino-3-methyl-butyric acid 5-(4-amino-2-oxo-2H-pyrimidine-1-yl)-4-hydroxy-2 hydroxy-methyl-4-methyl-tetrahydro-furan-3-yl ester (dihydrochloride salt)]
[2]; 8.3 mg/kg/day
  reduction of mean HCV RNA level: 0.83 log10 copies/ml
[2]; 16.6 mg/kg/day
  reduction of mean HCV RNA level: 1.05 log10 copies/ml
HCV; 50 mg/day for 15 days, Day 2
  Change From Baseline (Day 1) in Log10 HCV RNA, Median: −0.07 Log10
HCV; 50 mg/day for 15 days, Day 8
  Change From Baseline (Day 1) in Log10 HCV RNA, Median: −0.06 Log10
HCV; 50 mg/day for 15 days, Day 15
  Change From Baseline (Day 1) in Log10 HCV RNA, Median: −0.10 Log10
HCV; 50 mg/day for 15 days, Day 22
  Change From Baseline (Day 1) in Log10 HCV RNA, Mean: −0.09 Log10
  Change From Baseline (Day 1) in Log10 HCV RNA, Median: −0.09 Log10
HCV; 50 mg/day for 15 days, Day 29
  Change From Baseline (Day 1) in Log10 HCV RNA, Mean: −0.01 Log10
  Change From Baseline (Day 1) in Log10 HCV RNA, Median: −0.04 Log10
HCV; 50 mg/day for 15 days, Day −1
  HCV RNA in Log10 Scale, Mean: 6.72 Log10
HCV; 100 mg/day for 15 days, Day 8
  Change From Baseline (Day 1) in Log10 HCV RNA, Median: −0.20 Log10
CVB-2
  EC50: 12 µM
BVDV [3]
  EC50: 5.8 µM
DENV 2
  EC50: > 100 µM
REO-1
  EC50: 22 µM

## C[C@@]1(O)[C@H](O)[C@@H](CO)O[C@H]1n1ccc(=O)[nH]c1=O [mUrd, β-D-2′-C-methyl-ribofuranosyl uridine]
[4]
  antiviral activity against a wide spectrum of other viruses: essentially no antiviral activity
BVDV [5]
  potency against BVDV relative to mCyd (less potent): about 10 fold

## O=c1ccn([C@@H]2O[C@H](CO)[C@@H](O)[C@H]2O)c(=O)[nH]1 [uridine]
[1]; read-out: EC50 for reduction of intracellular phosphorylation of mCyd to mCyd-TP
  EC50: 20.9 ± 7.1 µM

Structures can show the parent of a compound that is named as a salt. Where two headings read alike, the source gives them in different places.
